Target: T1, rSsoPK4(284–635) (Saccharolobus solfataricus, UniProt Q97U41)
T1 construct: gene SSO3182; residues 284–635 (catalytic and part of central helical repeat domain), N-terminal S-tag, C-terminal 33-residue fusion domain with polyhistidine motif, pET-29b, expressed in E. coli
T1 sequence (Q97U41 284-635): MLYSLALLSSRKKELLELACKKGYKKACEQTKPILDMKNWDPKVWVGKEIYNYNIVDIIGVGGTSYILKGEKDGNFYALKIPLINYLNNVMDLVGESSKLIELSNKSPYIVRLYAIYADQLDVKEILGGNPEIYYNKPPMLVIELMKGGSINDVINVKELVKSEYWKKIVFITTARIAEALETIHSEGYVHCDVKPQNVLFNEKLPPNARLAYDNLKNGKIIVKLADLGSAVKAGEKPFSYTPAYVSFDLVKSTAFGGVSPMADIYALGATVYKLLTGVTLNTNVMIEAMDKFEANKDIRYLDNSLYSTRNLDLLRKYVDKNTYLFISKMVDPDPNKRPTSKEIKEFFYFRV
Assay: Filter paper [γ-32P]ATP kinase assay with MBP as phosphoacceptor, ATP routinely 100 µM, 5 mM MgCl2 and 5 mM MnCl2, 50 mM MOPS pH 7.0, 65 °C, in the presence of nucleotide effectors.
Format: biochemical
Description: Protein kinase activity was routinely assayed by the filter paper method of Corbin and Reimann as modified by Lower and Kennelly. The final volume of the assays was typically 50 μL. The quantity of rSsoPK4 assayed ranged from 0.1 to 5.0 µg. Both MgCl2 and MnCl2 were included at a final concentration of 5 mM each. The final concentration of [γ-^32P]ATP was 100 μM. The specific activity of the [γ-^32P]ATP generally ranged from 2 to 5 × 10^15 cpm/mol. Phosphoacceptor proteins were generally present at a concentration of 0.5–1.0 µg/µL. The assay mixture was typically incubated for a period of 30 min to one hour at 65 °C in 50 mM MOPS pH 7.0. On occasion, the proteins within the assay mixture were resolved by SDS-PAGE in order to identify the specific polypeptides that were phosphorylated. Radiolabeled species were visualized using an Instant Imager from Packard (Downers Grove, IL, USA).

Nc1ncnc2c1ncn2[C@@H]1O[C@H](COP(=O)(O)OS(=O)(=O)O)[C@@H](O)[C@H]1O [Adenosine phosphosulfate, adenosine 5'-phosphosulfate]
IC50: 190 µM

Source: article PMC5217372, “Activation of SsoPK4, an Archaeal eIF2α Kinase Homolog, by Oxidized CoA” (Proteomes, 2015)
